We go through 27 compounds from patent US5338845A, “Aspergillus species, cyclic dimeric dipeptide derivative substance P antagonist biosynthetic products thereof, and process for preparation thereof” (Sterling Winthrop Inc., priority 1992, dated 1994).

Protein sequences, listed by entry. Tags and fused reporters are not part of them.
UniProt P25103, whole entry: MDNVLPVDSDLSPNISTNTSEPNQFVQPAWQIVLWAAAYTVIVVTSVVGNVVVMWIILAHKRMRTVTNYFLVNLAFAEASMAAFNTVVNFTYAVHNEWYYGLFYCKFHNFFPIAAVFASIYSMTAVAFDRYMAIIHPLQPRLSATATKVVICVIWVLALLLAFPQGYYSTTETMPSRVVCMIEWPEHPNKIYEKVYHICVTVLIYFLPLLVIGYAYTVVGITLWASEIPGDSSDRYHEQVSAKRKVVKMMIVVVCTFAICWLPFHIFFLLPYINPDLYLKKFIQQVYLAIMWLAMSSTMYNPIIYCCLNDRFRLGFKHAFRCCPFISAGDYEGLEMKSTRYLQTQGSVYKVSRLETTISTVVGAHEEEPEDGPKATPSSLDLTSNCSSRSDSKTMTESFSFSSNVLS
UniProt P30547, whole entry: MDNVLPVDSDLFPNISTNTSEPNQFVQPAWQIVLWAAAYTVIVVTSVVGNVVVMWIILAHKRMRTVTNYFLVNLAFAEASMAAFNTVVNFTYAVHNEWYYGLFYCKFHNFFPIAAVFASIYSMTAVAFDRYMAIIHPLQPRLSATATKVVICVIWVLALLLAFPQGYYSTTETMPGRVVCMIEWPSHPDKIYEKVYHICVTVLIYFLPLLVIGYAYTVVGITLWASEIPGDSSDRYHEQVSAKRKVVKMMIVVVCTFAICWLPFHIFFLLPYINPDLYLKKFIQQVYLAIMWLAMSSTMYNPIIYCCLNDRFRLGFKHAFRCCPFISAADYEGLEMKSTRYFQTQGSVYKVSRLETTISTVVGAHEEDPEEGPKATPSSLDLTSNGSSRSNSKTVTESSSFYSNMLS

By Ki is commonly meant the dissociation constant of the complex between target and ligand, obtained from inhibition or displacement.

The target in the first assay is NK1 (Homo sapiens, UniProt P25103). As to the kind of experiment: Substance P NK1 receptor binding, 125I-Bolton Hunter Substance P, human astrocytoma cells (U-373 MG). The conditions noted are these: read-out: Ki Human Astrocytoma Cells (Substance P antagonist potency), U-373 MG cells, Ki calculated from IC50. How it is done: (§1) As stated above the compounds of Formula I are useful as Substance P antagonists and therefore as analgesic and/or antiinflammatory agents. Substance P antagonist NK1 receptor binding activity was determined using guinea pig submaxillary gland tissue and human astrocytoma cells.
Human astrocytoma cells (U--373 MG, ATCC No. HTB 17) were cultured in 75-mL flasks in an aqueous medium containing horse serum (heat inactivated, 10%), minimum essential amino acids (2%), minimum essential vitamin solution (2%), and an aqueous solution of penicillin (10,000 units/mL) and streptomycin (10,000 μg/mL) (Penn-Strep, 2%), which was sterilized by filtration through a disposable filter (Nalgene, VWR Cat. No. 28199-585). The medium was replaced twice weekly. Cells were passaged (1:4 split) by removing the medium and adding aqueous trypsin (0.25%, 8 mL/flask). The flasks were swirled for 30 seconds, the aqueous trypsin was removed, and the cells were incubated for 5 minutes at room temperature, then washed twice with fresh medium (7 mL each time). Poly-D-lysine solution (50 μg/mL in aqueous phosphate saline buffer, 0.25 mL) was added to each well of a sterile 96-well […] plate (Corning), which was then incubated at room temperature for 40 minutes. The poly-D-lysine solution was removed, each well was washed twice with aqueous phosphate saline buffer (0.25 mL), cells were added (0.2 mL/well), and the plate was incubated at 37° C. for two days in an oxygen-carbon dioxide (95:5) atmosphere to provide a monolayer of 1.4-1.9×10^4 cells per well.
To test for receptor binding the aqueous phosphate saline buffer was removed from each well, the cell monolayer was washed three times with assay buffer (aqueous 2-[4-(2-hydroxyethyl)-1-piperazinyl]ethanesulfonic acid [HEPES], 25 mM; potassium chloride, 5.8 mM; monopotassium phosphate, 2.2 mM; sodium chloride, 115 mM; magnesium sulfate, 0.6 mM; calcium chloride, 1.8 mM; bovine serum albumin, 1%; glucose, 5 mM; thiorphan, 1 μM; and bacitracin, 40 μg/mL; pH adjusted to 7.40 with dilute hydrochloric acid; 0.25 mL each time). To each well was then added assay buffer alone (0.1 mL) or a mixture (0.1 mL) with assay buffer as diluent containing ^125 I-Bolton Hunter Substance P (Amersham, Inc., Arlington Heights, Ill.; 0.1 nanomole) and test compound in amount to give the desired concentration thereof or, to determine nonspecific binding, unlabelled Substance P (0.1 micromole) and the plate was incubated at 25° C. for 90 minutes. Excess assay buffer or Substance P mixture was then removed and each well was washed four times with assay buffer (0.25 mL each time). The cells were detached from each well by addition of aqueous octoxynol (Triton X-100, 0.2%, 140 μL) containing bovine serum albumin (1 mg/L). The radioactivity of part (100 μL) of the detachment mixture was measured in a gamma ray counter (Packard Cobra). Kd and IC50 values were determined and a Ki value was calculated for each test compound as described above.
Turning to `Cc1ccc(C[C@@H]2NC(=O)[C@@H]3C[C@]4([C@]56C[C@H]7C(=O)N[C@@H](Cc8ccccc8)C(=O)N7[C@H]5Nc5ccccc56)c5ccccc5N[C@@H]4N3C2=O)cc1`, the inhibition constant Ki was 350 nM. On to `O=C1N[C@@H](Cc2ccccc2)C(=O)N2[C@H]3Nc4ccccc4[C@@]3([C@]34C[C@H]5C(=O)N[C@@H](Cc6cccs6)C(=O)N5[C@H]3Nc3ccccc34)C[C@@H]12`, for which the inhibition constant (Ki) was 930 nM.

For the compound `O=C1N[C@@H](Cc2ccccc2)C(=O)N2[C@H]3Nc4ccccc4[C@@]3([C@]34C[C@H]5C(=O)N[C@@H](Cc6ccccc6F)C(=O)N5[C@H]3Nc3ccccc34)C[C@@H]12`, the Ki was 700 nM. The same measure, in the same setting: the value for `O=C1N[C@@H](Cc2ccccc2)C(=O)N2[C@H]3Nc4ccccc4[C@@]3([C@]34C[C@H]5C(=O)N[C@@H](Cc6ccccc6)C(=O)N5[C@H]3Nc3ccc(Br)cc34)C[C@@H]12` was 1500 nM.

For `Cc1ccccc1C[C@@H]1NC(=O)[C@@H]2C[C@]3([C@]45C[C@H]6C(=O)N[C@@H](Cc7ccccc7C)C(=O)N6[C@H]4Nc4ccccc45)c4ccccc4N[C@@H]3N2C1=O`, the inhibition constant Ki was 160 nM. Still for that read-out and setting: the value for `O=C1N[C@@H](Cc2ccccc2)C(=O)N2[C@H]3Nc4ccccc4[C@@]3([C@]34C[C@H]5C(=O)N[C@@H](Cc6ccccc6Cl)C(=O)N5[C@H]3Nc3ccccc34)C[C@@H]12` was 260 nM. Consider `Cc1ccccc1C[C@@H]1NC(=O)[C@@H]2C[C@]3([C@]45C[C@H]6C(=O)N[C@@H](Cc7ccccc7)C(=O)N6[C@H]4Nc4ccccc45)c4ccccc4N[C@@H]3N2C1=O`, for which the inhibition constant Ki is 190 nM. On the same count and under the same terms, with `Cc1ccc2c(c1)[C@@]1([C@]34C[C@H]5C(=O)N[C@@H](Cc6ccccc6)C(=O)N5[C@H]3Nc3ccccc34)C[C@H]3C(=O)N[C@@H](Cc4ccccc4)C(=O)N3[C@H]1N2` the figure was 590 nM; with `Cc1ccc(C[C@@H]2NC(=O)[C@@H]3C[C@]4([C@]56C[C@H]7C(=O)N[C@@H](Cc8ccc(C)cc8)C(=O)N7[C@H]5Nc5ccccc56)c5ccccc5N[C@@H]4N3C2=O)cc1`, 450 nM.

As for `O=C1N[C@@H](Cc2ccccc2Cl)C(=O)N2[C@H]3Nc4ccccc4[C@@]3([C@]34C[C@H]5C(=O)N[C@@H](Cc6ccccc6Cl)C(=O)N5[C@H]3Nc3ccccc34)C[C@@H]12`, the Ki is 220 nM. For `O=C1N[C@@H](CC2CCCCC2)C(=O)N2[C@H]3Nc4ccccc4[C@@]3([C@]34C[C@H]5C(=O)N[C@@H](CC6CCCCC6)C(=O)N5[C@H]3Nc3ccccc34)C[C@@H]12`, the inhibition constant (Ki) is 800 nM. Still for that read-out and setting: with `Cc1cccc2c1[C@@]1([C@]34C[C@H]5C(=O)N[C@@H](Cc6ccccc6)C(=O)N5[C@H]3Nc3cccc(C)c34)C[C@H]3C(=O)N[C@@H](Cc4ccccc4)C(=O)N3[C@H]1N2` the figure was 5650 nM; with `Cc1cccc2c1[C@@]1([C@]34C[C@H]5C(=O)N[C@@H](Cc6ccccc6)C(=O)N5[C@H]3Nc3ccccc34)C[C@H]3C(=O)N[C@@H](Cc4ccccc4)C(=O)N3[C@H]1N2`, 440 nM.

Consider `Cc1ccc2c(c1)[C@@]1([C@]34C[C@H]5C(=O)N[C@@H](Cc6ccccc6)C(=O)N5[C@H]3Nc3ccc(C)cc34)C[C@H]3C(=O)N[C@@H](Cc4ccccc4)C(=O)N3[C@H]1N2`, for which the Ki was 2850 nM. On the same count and under the same terms, the value for `O=C1N[C@@H](Cc2ccccc2)C(=O)N2[C@H]3Nc4ccccc4[C@@]3([C@]34C[C@H]5C(=O)N[C@@H](CC6CCCCC6)C(=O)N5[C@H]3Nc3ccccc34)C[C@@H]12` was 380 nM; that for `O=C1N[C@@H](Cc2cccs2)C(=O)N2[C@H]3Nc4ccccc4[C@@]3([C@]34C[C@H]5C(=O)N[C@@H](Cc6cccs6)C(=O)N5[C@H]3Nc3ccccc34)C[C@@H]12` was 3000 nM.

A further assay concerns the target NK1 (Cavia porcellus, UniProt P30547). As to the kind of experiment: Substance P NK1 receptor binding, tritiated Substance P, guinea pig submaxillary gland tissue. The settings on record: read-out: Ki Guinea Pig Submaxillary Gland Tissue (Substance P antagonist potency); tritiated Substance P 0.75 nM; Ki calculated from IC50 by Cheng-Prusoff. On the procedure: as §1
Submaxillary glands from both sexes of Hartley guinea pigs were obtained from Pel Freeze Biologicals, Rogers, Arkansas by overnight express in a plastic bag kept cold in wet ice. Extraneous tissue was removed and the glands were homogenized (Brinkman Polytron 10TS generator, 3-4 10-second bursts at a setting of 10) in ice cold buffer C (sodium chloride, 120 mM; potassium chloride, 5 mM; tromethamine [TRIS], 50 mM; pH adjusted to 7.40 with dilute hydrochloric acid; 100 mL for 50 submaxillary glands). The homogenate was centrifuged (16,000×g) at 4° C. for 15 minutes and the supernatant fluid was discarded. In order to release any native bound Substance P from its receptor approximately 200 mL of buffer B (potassium chloride, 500 mM; tromethamine, 50 mM; ethylenediaminetetraacetic acid [EDTA], 10 mM; pH adjusted to 7.40 with dilute hydrochloric acid) was added to the pellet, which was resuspended by low speed homogenization. The suspension was incubated at ice temperature for 30 minutes with periodic swirling and centrifuged, and the supernatant liquid was discarded. Tromethamine buffer (50 mM, pH adjusted to 7.40 with dilute hydrochloric acid, 200 mL) was added, the pellet was resuspended, the suspended mixture was centrifuged, the supernatant fluid was discarded, and this procedure was repeated. About twice the pellet volume of tromethamine buffer was added to the pellet and the resulting submaxillary gland tissue preparation (1.0 to 1.5 mL) was stored at -70° C. Using serum bovine albumin as the standard the protein yield was determined by the Bradford method (Bio-Rad, Richmond, Calif.) to be 7-8 mg/mL or about 250 mg from 50 submaxillary glands.
To test for receptor binding a sample of the submaxillary gland tissue preparation was thawed on ice and rehomogenized with a glass homogenizer (Dounce). To a polystyrene test tube were added an aliquot of the resulting homogenate (200 μL containing 150-300 μg of protein), tromethamine buffer (100 μL), protease buffer (aqueous chymostatin, 5 μg/mL; leupeptin, 10 μg/mL; bacitracin, 100 μg/mL; manganous chloride, 3 mM; bovine serum albumin, 0.05%; tromethamine, 50 mM; pH adjusted to 7.40 with dilute hydrochloric acid; 100 μL) and tritiated Substance P (44-54 Ci/millimole, 0.75 nM in protease buffer, 100 μL). Dimethylsulfoxide alone (5 μL) or a dimethylsulfoxide solution (5 μL) of the test compound (amount such that 1:100 dilution gave the desired concentration thereof) was added to the tube. The mixture was allowed to reach equilibrium for 20-30 minutes, then filtered (Whatman GF/C filter, Brandel harvester). The residue on the filter was washed three times with tromethamine buffer (3 mL each time) and its radioactivity was measured in a liquid scintillation counter (Beckman LS5000) (x=number of counts per minute with test compound, y=number of counts per minute without test compound). Adding a large excess of untritiated Substance P (1 μM) to the protease buffer and carrying out the procedure without test compound gave a measure (z=number of counts per minute) of the nonspecific binding, which was generally less than 10% of the total binding. The dissociation constant (Kd) for receptor binding was determined by varying the concentration of tritiated Substance P. The following calculations were made:
L=1n(% inhibition/% bound).
Values of L for each test compound were plotted against the corresponding values of the log of the concentration of the test compound, a linear regression line was constructed, and the concentration of the test compound corresponding to L=0, which is defined as the IC50 value, was determined. […]
Consider `O=C1N[C@@H](Cc2ccccc2)C(=O)N2[C@H]3Nc4ccccc4[C@@]3([C@]34C[C@H]5C(=O)N[C@@H](Cc6ccc(Cl)cc6)C(=O)N5[C@H]3Nc3ccccc34)C[C@@H]12`, for which the Ki is 2860 nM. In the case of `O=C1N[C@@H](Cc2ccccc2)C(=O)N2[C@H]3Nc4cccc(F)c4[C@@]3([C@]34C[C@H]5C(=O)N[C@@H](Cc6ccccc6)C(=O)N5[C@H]3Nc3cccc(F)c34)C[C@@H]12`, the Ki is above 40000 nM. On the same count and under the same terms, the value for `COc1ccc2c(c1)[C@@]1([C@]34C[C@H]5C(=O)N[C@@H](Cc6ccccc6)C(=O)N5[C@H]3Nc3ccccc34)C[C@H]3C(=O)N[C@@H](Cc4ccccc4)C(=O)N3[C@H]1N2` was 900 nM. As to `CCC[C@@H]1NC(=O)[C@@H]2C[C@]3([C@]45C[C@H]6C(=O)N[C@@H](Cc7ccccc7)C(=O)N6[C@H]4Nc4ccccc45)c4ccccc4N[C@@H]3N2C1=O`, the Ki is above 40000 nM. Same read-out and setting: with `CC(C[C@@H]1NC(=O)[C@@H]2C[C@]3([C@]45C[C@H]6C(=O)N[C@@H](Cc7ccccc7)C(=O)N6[C@H]4Nc4ccccc45)c4ccccc4N[C@@H]3N2C1=O)C(F)(F)F` (stereo partly drawn) the figure was 7580 nM.

Regarding `O=C1N[C@@H](Cc2ccc(Cl)cc2)C(=O)N2[C@H]3Nc4ccccc4[C@@]3([C@]34C[C@H]5C(=O)N[C@@H](Cc6ccc(Cl)cc6)C(=O)N5[C@H]3Nc3ccccc34)C[C@@H]12`, the Ki is above 40000 nM. Same read-out and setting: the value for `Cc1ccc2c(c1)N[C@@H]1N3C(=O)[C@H](Cc4ccccc4)NC(=O)[C@@H]3C[C@]21[C@]12C[C@H]3C(=O)N[C@@H](Cc4ccccc4)C(=O)N3[C@H]1Nc1ccccc12` was 7800 nM. Consider `O=C1N[C@@H](Cc2ccc(F)cc2)C(=O)N2[C@H]3Nc4ccccc4[C@@]3([C@]34C[C@H]5C(=O)N[C@@H](Cc6ccc(F)cc6)C(=O)N5[C@H]3Nc3ccccc34)C[C@@H]12`, for which the inhibition constant Ki is 4600 nM.

In the case of `C=CC[C@@H]1NC(=O)[C@@H]2C[C@]3([C@]45C[C@H]6C(=O)N[C@@H](Cc7ccccc7)C(=O)N6[C@H]4Nc4ccccc45)c4ccccc4N[C@@H]3N2C1=O`, the inhibition constant Ki is 5800 nM. On the same count and under the same terms, with `O=C1N[C@@H](Cc2ccccc2)C(=O)N2[C@H]3Nc4ccccc4[C@@]3([C@]34C[C@H]5C(=O)N[C@@H](Cc6ccccc6)C(=O)N5[C@H]3Nc3cccc(F)c34)C[C@@H]12` the figure was 6370 nM; with `CC(C)[C@@H]1NC(=O)[C@@H]2C[C@]3([C@]45C[C@H]6C(=O)N[C@@H](Cc7ccccc7)C(=O)N6[C@H]4Nc4ccccc45)c4ccccc4N[C@@H]3N2C1=O`, 22800 nM.
